Molecular target: CRBN (Homo sapiens, UniProt Q96SW2)
Assay: CRBN binding affinity by HTRF (CEREBLON BINDING kit)
Settings: CRBN binding, HTRF, compound at 0.5 µM

The chains behind the UniProt entries cited, without tags or fusion partners.
UniProt Q96SW2, whole entry: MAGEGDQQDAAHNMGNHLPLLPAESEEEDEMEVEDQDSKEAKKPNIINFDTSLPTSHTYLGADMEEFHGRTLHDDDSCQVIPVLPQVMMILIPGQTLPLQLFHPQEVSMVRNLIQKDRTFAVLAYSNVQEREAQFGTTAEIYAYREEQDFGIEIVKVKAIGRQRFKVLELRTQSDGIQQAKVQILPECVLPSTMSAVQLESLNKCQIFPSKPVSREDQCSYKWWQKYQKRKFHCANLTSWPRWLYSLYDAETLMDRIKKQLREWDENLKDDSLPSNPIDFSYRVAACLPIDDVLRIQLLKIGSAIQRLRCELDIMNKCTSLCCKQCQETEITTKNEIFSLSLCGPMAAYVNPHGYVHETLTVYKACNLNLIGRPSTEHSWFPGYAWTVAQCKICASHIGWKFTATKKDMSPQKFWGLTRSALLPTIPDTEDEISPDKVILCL
UniProt P48729, whole entry: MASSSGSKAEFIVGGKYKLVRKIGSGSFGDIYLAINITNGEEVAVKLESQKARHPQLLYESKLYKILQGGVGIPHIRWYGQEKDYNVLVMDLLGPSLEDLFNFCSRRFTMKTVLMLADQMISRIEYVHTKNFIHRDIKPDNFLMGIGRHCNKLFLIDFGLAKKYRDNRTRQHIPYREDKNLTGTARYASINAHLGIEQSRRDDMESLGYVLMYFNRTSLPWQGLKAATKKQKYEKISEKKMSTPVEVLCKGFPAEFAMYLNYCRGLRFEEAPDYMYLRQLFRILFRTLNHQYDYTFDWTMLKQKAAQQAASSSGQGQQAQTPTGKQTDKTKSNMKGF
UniProt P15170, whole entry: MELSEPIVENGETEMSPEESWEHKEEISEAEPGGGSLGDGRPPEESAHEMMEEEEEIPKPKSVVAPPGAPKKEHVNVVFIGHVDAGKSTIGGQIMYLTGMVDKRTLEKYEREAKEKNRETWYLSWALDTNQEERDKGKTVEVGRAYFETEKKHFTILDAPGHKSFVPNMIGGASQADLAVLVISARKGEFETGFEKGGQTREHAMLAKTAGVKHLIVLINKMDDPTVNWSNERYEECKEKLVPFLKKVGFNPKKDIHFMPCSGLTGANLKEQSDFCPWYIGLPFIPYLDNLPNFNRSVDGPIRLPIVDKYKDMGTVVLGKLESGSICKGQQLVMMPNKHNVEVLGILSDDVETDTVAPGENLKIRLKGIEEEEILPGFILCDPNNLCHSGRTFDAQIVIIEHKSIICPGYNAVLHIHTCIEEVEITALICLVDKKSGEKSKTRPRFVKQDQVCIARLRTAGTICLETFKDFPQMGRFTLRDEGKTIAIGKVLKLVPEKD
UniProt Q13422, whole entry: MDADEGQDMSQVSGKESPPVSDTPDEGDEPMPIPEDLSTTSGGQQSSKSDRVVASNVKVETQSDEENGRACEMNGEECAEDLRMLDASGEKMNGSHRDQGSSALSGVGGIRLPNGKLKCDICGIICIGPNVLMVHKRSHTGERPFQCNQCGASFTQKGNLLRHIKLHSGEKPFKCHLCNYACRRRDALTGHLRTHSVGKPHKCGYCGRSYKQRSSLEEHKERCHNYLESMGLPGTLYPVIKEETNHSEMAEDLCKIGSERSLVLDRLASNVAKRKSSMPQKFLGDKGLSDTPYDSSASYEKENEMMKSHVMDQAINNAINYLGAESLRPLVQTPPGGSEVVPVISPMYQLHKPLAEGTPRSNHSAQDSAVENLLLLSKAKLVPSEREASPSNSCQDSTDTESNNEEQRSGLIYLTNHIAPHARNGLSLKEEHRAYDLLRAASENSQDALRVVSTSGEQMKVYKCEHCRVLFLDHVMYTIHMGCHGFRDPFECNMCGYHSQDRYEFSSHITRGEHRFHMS
UniProt Q9UKS7, whole entry: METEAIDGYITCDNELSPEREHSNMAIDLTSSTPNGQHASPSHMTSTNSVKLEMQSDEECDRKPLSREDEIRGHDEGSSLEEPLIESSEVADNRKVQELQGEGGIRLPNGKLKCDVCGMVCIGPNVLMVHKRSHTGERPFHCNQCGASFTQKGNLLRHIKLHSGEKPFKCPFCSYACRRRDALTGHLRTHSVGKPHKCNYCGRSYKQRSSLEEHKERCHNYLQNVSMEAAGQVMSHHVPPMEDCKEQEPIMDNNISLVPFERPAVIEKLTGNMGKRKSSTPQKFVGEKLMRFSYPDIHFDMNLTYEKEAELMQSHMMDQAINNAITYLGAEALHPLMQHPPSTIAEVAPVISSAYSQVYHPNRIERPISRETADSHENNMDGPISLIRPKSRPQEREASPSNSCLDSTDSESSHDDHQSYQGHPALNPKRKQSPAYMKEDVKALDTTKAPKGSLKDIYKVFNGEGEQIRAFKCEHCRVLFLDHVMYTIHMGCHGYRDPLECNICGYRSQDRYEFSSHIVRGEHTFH
UniProt Q9UKT9, whole entry: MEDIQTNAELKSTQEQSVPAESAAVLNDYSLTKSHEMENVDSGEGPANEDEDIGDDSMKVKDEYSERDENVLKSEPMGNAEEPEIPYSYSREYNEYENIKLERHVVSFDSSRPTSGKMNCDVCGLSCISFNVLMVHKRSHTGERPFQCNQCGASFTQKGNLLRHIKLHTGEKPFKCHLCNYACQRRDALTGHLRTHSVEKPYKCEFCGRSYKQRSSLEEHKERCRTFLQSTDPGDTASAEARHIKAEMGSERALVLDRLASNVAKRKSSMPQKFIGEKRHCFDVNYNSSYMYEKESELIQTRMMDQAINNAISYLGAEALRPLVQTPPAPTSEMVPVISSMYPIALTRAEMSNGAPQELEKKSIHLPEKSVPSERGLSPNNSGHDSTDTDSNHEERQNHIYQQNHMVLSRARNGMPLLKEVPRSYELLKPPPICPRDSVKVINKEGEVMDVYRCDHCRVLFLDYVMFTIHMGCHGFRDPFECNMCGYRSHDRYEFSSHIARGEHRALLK
UniProt P30291, whole entry: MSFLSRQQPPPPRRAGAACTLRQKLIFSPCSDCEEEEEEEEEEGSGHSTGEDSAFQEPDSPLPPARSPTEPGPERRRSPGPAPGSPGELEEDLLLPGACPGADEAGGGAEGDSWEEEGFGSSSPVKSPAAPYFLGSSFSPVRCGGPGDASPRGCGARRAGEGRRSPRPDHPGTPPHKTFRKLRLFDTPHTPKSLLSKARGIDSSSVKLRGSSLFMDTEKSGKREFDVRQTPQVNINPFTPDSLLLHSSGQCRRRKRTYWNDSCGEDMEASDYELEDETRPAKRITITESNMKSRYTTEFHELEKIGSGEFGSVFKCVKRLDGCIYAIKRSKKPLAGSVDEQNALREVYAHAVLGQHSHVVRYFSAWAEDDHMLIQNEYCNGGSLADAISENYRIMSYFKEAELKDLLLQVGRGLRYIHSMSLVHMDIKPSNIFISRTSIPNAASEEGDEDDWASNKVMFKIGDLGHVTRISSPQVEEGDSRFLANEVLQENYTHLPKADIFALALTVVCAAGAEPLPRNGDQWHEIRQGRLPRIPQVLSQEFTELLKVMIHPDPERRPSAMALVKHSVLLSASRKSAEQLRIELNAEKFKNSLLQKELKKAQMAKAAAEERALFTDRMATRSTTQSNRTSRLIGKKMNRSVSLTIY
UniProt Q16531, whole entry partner: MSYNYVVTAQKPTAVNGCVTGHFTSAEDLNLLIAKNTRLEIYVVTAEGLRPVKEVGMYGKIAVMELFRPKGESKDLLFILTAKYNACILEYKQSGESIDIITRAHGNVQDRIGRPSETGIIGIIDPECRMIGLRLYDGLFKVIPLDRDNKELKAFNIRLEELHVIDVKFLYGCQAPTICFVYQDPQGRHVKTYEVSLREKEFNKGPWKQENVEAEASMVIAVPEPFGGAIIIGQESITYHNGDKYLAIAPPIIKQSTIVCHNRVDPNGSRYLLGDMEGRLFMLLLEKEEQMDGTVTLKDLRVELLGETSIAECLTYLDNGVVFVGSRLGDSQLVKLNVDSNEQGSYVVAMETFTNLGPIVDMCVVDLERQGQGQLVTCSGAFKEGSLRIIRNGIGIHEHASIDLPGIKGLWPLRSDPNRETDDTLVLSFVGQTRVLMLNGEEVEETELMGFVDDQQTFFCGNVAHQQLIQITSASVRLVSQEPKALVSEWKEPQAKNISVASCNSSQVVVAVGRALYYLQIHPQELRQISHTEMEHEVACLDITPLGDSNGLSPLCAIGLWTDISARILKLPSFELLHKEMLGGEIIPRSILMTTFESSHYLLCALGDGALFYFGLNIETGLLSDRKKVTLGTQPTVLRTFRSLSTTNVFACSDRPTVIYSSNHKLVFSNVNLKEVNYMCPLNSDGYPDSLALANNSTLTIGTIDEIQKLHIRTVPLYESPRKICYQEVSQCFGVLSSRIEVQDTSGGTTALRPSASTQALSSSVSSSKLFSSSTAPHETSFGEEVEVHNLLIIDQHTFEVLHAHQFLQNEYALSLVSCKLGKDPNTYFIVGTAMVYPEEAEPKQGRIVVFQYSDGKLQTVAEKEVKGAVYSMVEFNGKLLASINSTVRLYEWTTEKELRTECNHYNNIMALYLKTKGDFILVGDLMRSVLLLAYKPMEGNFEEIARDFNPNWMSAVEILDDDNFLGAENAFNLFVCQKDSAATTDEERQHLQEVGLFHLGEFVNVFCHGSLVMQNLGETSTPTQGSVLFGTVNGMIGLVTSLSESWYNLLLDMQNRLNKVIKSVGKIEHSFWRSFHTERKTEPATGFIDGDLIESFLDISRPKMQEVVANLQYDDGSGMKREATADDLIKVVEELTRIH

Row | SMILES | Inhibition Rate at 0.5 µM (%)
1 | O=C1CCC(N2Cc3cc(C(=O)N4CCC(N5CCN(C(c6ccccc6)c6ccccn6)CC5)C(F)(F)C4)cc(F)c3C2=O)C(=O)N1 (centres unmarked) | a3 (30% < a3 ≤ 40%)
2 | O=C1CCC(N2Cc3c(C(=O)N4CCC(N5CCN(C(c6ccccc6)c6ccccc6)CC5)C(F)(F)C4)cccc3C2=O)C(=O)N1 (centres unmarked) | a2 (20% < a2 ≤ 30%)
3 | CC1(C)CCC(CN2CCN(C3CCN(Cc4ccc5c(c4)C(=S)N(C4CCC(=O)NC4=O)C5)CC3(F)F)CC2)=C(c2ccc(Cl)cc2)C1 (centres unmarked) | a3 (30% < a3 ≤ 40%)
4 | O=C1CCC(N2Cc3cc(C(=O)N4CCC(N5CCN(c6noc7cc(F)ccc67)CC5)CC4)ccc3C2=O)C(=O)N1 (centres unmarked) | a3 (30% < a3 ≤ 40%)
5 | O=C1CCC(N2Cc3cccc(CN4CCC(N5CC=C(c6cccc(Cl)c6Cl)CC5)C(F)(F)C4)c3C2=O)C(=O)N1 (centres unmarked) | a4 (40% < a4 ≤ 53%)

Same assay, conditions: CRBN binding, HTRF, compound at 2 µM

Row | SMILES | Inhibition Rate at 2 µM (%)
6 | O=C1CCC(N2Cc3cc(C(=O)N4CCC(N5CCN(C(c6ccccc6)c6ccccn6)CC5)C(F)(F)C4)cc(F)c3C2=O)C(=O)N1 (centres unmarked) | a6 (60% < a6 ≤ 70%)
7 | O=C1CCC(N2Cc3c(C(=O)N4CCC(N5CCN(C(c6ccccc6)c6ccccc6)CC5)C(F)(F)C4)cccc3C2=O)C(=O)N1 (centres unmarked) | a6 (60% < a6 ≤ 70%)
8 | CC1(C)CCC(CN2CCN(C3CCN(Cc4ccc5c(c4)C(=S)N(C4CCC(=O)NC4=O)C5)CC3(F)F)CC2)=C(c2ccc(Cl)cc2)C1 (centres unmarked) | a6 (60% < a6 ≤ 70%)
9 | O=C1CCC(N2Cc3cc(C(=O)N4CCC(N5CCN(c6noc7cc(F)ccc67)CC5)CC4)ccc3C2=O)C(=O)N1 (centres unmarked) | a6 (60% < a6 ≤ 70%)
10 | O=C1CCC(N2Cc3cccc(CN4CCC(N5CC=C(c6cccc(Cl)c6Cl)CC5)C(F)(F)C4)c3C2=O)C(=O)N1 (centres unmarked) | a6 (60% < a6 ≤ 70%)

Same assay, conditions: read-out: HTRF IC50; human Cereblon WT GST-tagged protein; 3 hours at room temperature

Row | SMILES | IC50
11 | O=C1CCC(N2Cc3cc(CN4CCC(N5CCN(C(c6ccccc6)c6ccccc6)CC5)CC4)ccc3C2=O)C(=O)N1 (centres unmarked) | 500 to 1000 nM

Molecular target: CK1α (Homo sapiens, UniProt P48729+Q96SW2)
Assay: Western blot assay of substrate protein degradation in hPBMCs
Settings: 24 hours treatment, compounds at 50 nM and 500 nM (concentration behind the class not stated)

Row | SMILES | substrate protein remaining % (CK1a)
12 | O=C1CCC(N2Cc3cc(C(=O)N4CCC(N5CCN(C(c6ccccc6)c6ccccn6)CC5)C(F)(F)C4)cc(F)c3C2=O)C(=O)N1 (centres unmarked) | A (0% ≤ substrate protein remaining % ≤ 80%)
13 | O=C1CCC(N2Cc3c(C(=O)N4CCC(N5CCN(C(c6ccccc6)c6ccccc6)CC5)C(F)(F)C4)cccc3C2=O)C(=O)N1 (centres unmarked) | A (0% ≤ substrate protein remaining % ≤ 80%)
14 | O=C1CCC(N2Cc3cc(CN4CCC(N5CCN(C(c6ccccc6)c6ccccc6)CC5)CC4)ccc3C2=O)C(=O)N1 (centres unmarked) | A (0% ≤ substrate protein remaining % ≤ 80%)
15 | CC1(C)CCC(CN2CCN(C3CCN(Cc4ccc5c(c4)C(=S)N(C4CCC(=O)NC4=O)C5)CC3(F)F)CC2)=C(c2ccc(Cl)cc2)C1 (centres unmarked) | B (80%< substrate protein remaining %≤ 100%)
16 | O=C1CCC(N2Cc3cc(C(=O)N4CCC(N5CCN(c6noc7cc(F)ccc67)CC5)CC4)ccc3C2=O)C(=O)N1 (centres unmarked) | B (80%< substrate protein remaining %≤ 100%)
17 | O=C1CCC(N2Cc3cccc(CN4CCC(N5CC=C(c6cccc(Cl)c6Cl)CC5)C(F)(F)C4)c3C2=O)C(=O)N1 (centres unmarked) | B (80%< substrate protein remaining %≤ 100%)

Molecular target: GSPT1 (Homo sapiens, UniProt P15170+Q96SW2)
Assay: as above
Settings: 24 hours treatment, compounds at 50 nM and 500 nM (concentration behind the class not stated)

Row | SMILES | substrate protein remaining % (GSPT1)
18 | O=C1CCC(N2Cc3cc(C(=O)N4CCC(N5CCN(C(c6ccccc6)c6ccccn6)CC5)C(F)(F)C4)cc(F)c3C2=O)C(=O)N1 (centres unmarked) | A (0% ≤ substrate protein remaining % ≤ 80%)
19 | O=C1CCC(N2Cc3c(C(=O)N4CCC(N5CCN(C(c6ccccc6)c6ccccc6)CC5)C(F)(F)C4)cccc3C2=O)C(=O)N1 (centres unmarked) | A (0% ≤ substrate protein remaining % ≤ 80%)
20 | O=C1CCC(N2Cc3cc(CN4CCC(N5CCN(C(c6ccccc6)c6ccccc6)CC5)CC4)ccc3C2=O)C(=O)N1 (centres unmarked) | A (0% ≤ substrate protein remaining % ≤ 80%)
21 | CC1(C)CCC(CN2CCN(C3CCN(Cc4ccc5c(c4)C(=S)N(C4CCC(=O)NC4=O)C5)CC3(F)F)CC2)=C(c2ccc(Cl)cc2)C1 (centres unmarked) | A (0% ≤ substrate protein remaining % ≤ 80%)
22 | O=C1CCC(N2Cc3cc(C(=O)N4CCC(N5CCN(c6noc7cc(F)ccc67)CC5)CC4)ccc3C2=O)C(=O)N1 (centres unmarked) | A (0% ≤ substrate protein remaining % ≤ 80%)
23 | O=C1CCC(N2Cc3cccc(CN4CCC(N5CC=C(c6cccc(Cl)c6Cl)CC5)C(F)(F)C4)c3C2=O)C(=O)N1 (centres unmarked) | A (0% ≤ substrate protein remaining % ≤ 80%)

Molecular target: IKZF1 (Homo sapiens, UniProt Q13422+Q96SW2)
Assay: as above
Settings: 24 hours treatment, compounds at 50 nM and 500 nM (concentration behind the class not stated)

Row | SMILES | substrate protein remaining % (IKZF 1)
24 | O=C1CCC(N2Cc3cc(C(=O)N4CCC(N5CCN(C(c6ccccc6)c6ccccn6)CC5)C(F)(F)C4)cc(F)c3C2=O)C(=O)N1 (centres unmarked) | B (80%< substrate protein remaining %≤ 100%)
25 | O=C1CCC(N2Cc3c(C(=O)N4CCC(N5CCN(C(c6ccccc6)c6ccccc6)CC5)C(F)(F)C4)cccc3C2=O)C(=O)N1 (centres unmarked) | A (0% ≤ substrate protein remaining % ≤ 80%)
26 | O=C1CCC(N2Cc3cc(CN4CCC(N5CCN(C(c6ccccc6)c6ccccc6)CC5)CC4)ccc3C2=O)C(=O)N1 (centres unmarked) | B (80%< substrate protein remaining %≤ 100%)
27 | CC1(C)CCC(CN2CCN(C3CCN(Cc4ccc5c(c4)C(=S)N(C4CCC(=O)NC4=O)C5)CC3(F)F)CC2)=C(c2ccc(Cl)cc2)C1 (centres unmarked) | B (80%< substrate protein remaining %≤ 100%)
28 | O=C1CCC(N2Cc3cc(C(=O)N4CCC(N5CCN(c6noc7cc(F)ccc67)CC5)CC4)ccc3C2=O)C(=O)N1 (centres unmarked) | B (80%< substrate protein remaining %≤ 100%)
29 | O=C1CCC(N2Cc3cccc(CN4CCC(N5CC=C(c6cccc(Cl)c6Cl)CC5)C(F)(F)C4)c3C2=O)C(=O)N1 (centres unmarked) | B (80%< substrate protein remaining %≤ 100%)

Molecular target: IKZF2 (Homo sapiens, UniProt Q96SW2+Q9UKS7)
Assay: as above
Settings: 24 hours treatment, compounds at 50 nM and 500 nM (concentration behind the class not stated)

Row | SMILES | substrate protein remaining % (IKZF2)
30 | O=C1CCC(N2Cc3cc(C(=O)N4CCC(N5CCN(C(c6ccccc6)c6ccccn6)CC5)C(F)(F)C4)cc(F)c3C2=O)C(=O)N1 (centres unmarked) | A (0% ≤ substrate protein remaining % ≤ 80%)
31 | O=C1CCC(N2Cc3c(C(=O)N4CCC(N5CCN(C(c6ccccc6)c6ccccc6)CC5)C(F)(F)C4)cccc3C2=O)C(=O)N1 (centres unmarked) | B (80%< substrate protein remaining %≤ 100%)
32 | O=C1CCC(N2Cc3cc(CN4CCC(N5CCN(C(c6ccccc6)c6ccccc6)CC5)CC4)ccc3C2=O)C(=O)N1 (centres unmarked) | A (0% ≤ substrate protein remaining % ≤ 80%)
33 | CC1(C)CCC(CN2CCN(C3CCN(Cc4ccc5c(c4)C(=S)N(C4CCC(=O)NC4=O)C5)CC3(F)F)CC2)=C(c2ccc(Cl)cc2)C1 (centres unmarked) | B (80%< substrate protein remaining %≤ 100%)
34 | O=C1CCC(N2Cc3cc(C(=O)N4CCC(N5CCN(c6noc7cc(F)ccc67)CC5)CC4)ccc3C2=O)C(=O)N1 (centres unmarked) | B (80%< substrate protein remaining %≤ 100%)
35 | O=C1CCC(N2Cc3cccc(CN4CCC(N5CC=C(c6cccc(Cl)c6Cl)CC5)C(F)(F)C4)c3C2=O)C(=O)N1 (centres unmarked) | B (80%< substrate protein remaining %≤ 100%)

Molecular target: IKZF3 (Homo sapiens, UniProt Q96SW2+Q9UKT9)
Assay: as above
Settings: 24 hours treatment, compounds at 50 nM and 500 nM (concentration behind the class not stated)

Row | SMILES | substrate protein remaining % (IKZF3)
36 | O=C1CCC(N2Cc3cc(C(=O)N4CCC(N5CCN(C(c6ccccc6)c6ccccn6)CC5)C(F)(F)C4)cc(F)c3C2=O)C(=O)N1 (centres unmarked) | A (0% ≤ substrate protein remaining % ≤ 80%)
37 | O=C1CCC(N2Cc3c(C(=O)N4CCC(N5CCN(C(c6ccccc6)c6ccccc6)CC5)C(F)(F)C4)cccc3C2=O)C(=O)N1 (centres unmarked) | A (0% ≤ substrate protein remaining % ≤ 80%)
38 | O=C1CCC(N2Cc3cc(CN4CCC(N5CCN(C(c6ccccc6)c6ccccc6)CC5)CC4)ccc3C2=O)C(=O)N1 (centres unmarked) | A (0% ≤ substrate protein remaining % ≤ 80%)
39 | CC1(C)CCC(CN2CCN(C3CCN(Cc4ccc5c(c4)C(=S)N(C4CCC(=O)NC4=O)C5)CC3(F)F)CC2)=C(c2ccc(Cl)cc2)C1 (centres unmarked) | A (0% ≤ substrate protein remaining % ≤ 80%)
40 | O=C1CCC(N2Cc3cc(C(=O)N4CCC(N5CCN(c6noc7cc(F)ccc67)CC5)CC4)ccc3C2=O)C(=O)N1 (centres unmarked) | B (80%< substrate protein remaining %≤ 100%)
41 | O=C1CCC(N2Cc3cccc(CN4CCC(N5CC=C(c6cccc(Cl)c6Cl)CC5)C(F)(F)C4)c3C2=O)C(=O)N1 (centres unmarked) | B (80%< substrate protein remaining %≤ 100%)

Molecular target: WEE1 (Homo sapiens, UniProt P30291+Q96SW2)
Assay: as above
Settings: 24 hours treatment, compounds at 50 nM and 500 nM (concentration behind the class not stated)

Row | SMILES | substrate protein remaining % (WEE1)
42 | O=C1CCC(N2Cc3cc(C(=O)N4CCC(N5CCN(C(c6ccccc6)c6ccccn6)CC5)C(F)(F)C4)cc(F)c3C2=O)C(=O)N1 (centres unmarked) | B (80%< substrate protein remaining %≤ 100%)
43 | O=C1CCC(N2Cc3c(C(=O)N4CCC(N5CCN(C(c6ccccc6)c6ccccc6)CC5)C(F)(F)C4)cccc3C2=O)C(=O)N1 (centres unmarked) | A (0% ≤ substrate protein remaining % ≤ 80%)
44 | O=C1CCC(N2Cc3cc(CN4CCC(N5CCN(C(c6ccccc6)c6ccccc6)CC5)CC4)ccc3C2=O)C(=O)N1 (centres unmarked) | B (80%< substrate protein remaining %≤ 100%)
45 | CC1(C)CCC(CN2CCN(C3CCN(Cc4ccc5c(c4)C(=S)N(C4CCC(=O)NC4=O)C5)CC3(F)F)CC2)=C(c2ccc(Cl)cc2)C1 (centres unmarked) | B (80%< substrate protein remaining %≤ 100%)
46 | O=C1CCC(N2Cc3cc(C(=O)N4CCC(N5CCN(c6noc7cc(F)ccc67)CC5)CC4)ccc3C2=O)C(=O)N1 (centres unmarked) | A (0% ≤ substrate protein remaining % ≤ 80%)
47 | O=C1CCC(N2Cc3cccc(CN4CCC(N5CC=C(c6cccc(Cl)c6Cl)CC5)C(F)(F)C4)c3C2=O)C(=O)N1 (centres unmarked) | B (80%< substrate protein remaining %≤ 100%)
